The results in this text go back to patent publication US20230227428A1 (Anaxis Pharma Pty Ltd, priority 2020, published 2023).

Protein sequences, listed by entry. Tags and fused reporters are not part of them. Lines headed by an entry give the natural chain unless they say otherwise; changes in a name come on top.
UniProt Q9Y572: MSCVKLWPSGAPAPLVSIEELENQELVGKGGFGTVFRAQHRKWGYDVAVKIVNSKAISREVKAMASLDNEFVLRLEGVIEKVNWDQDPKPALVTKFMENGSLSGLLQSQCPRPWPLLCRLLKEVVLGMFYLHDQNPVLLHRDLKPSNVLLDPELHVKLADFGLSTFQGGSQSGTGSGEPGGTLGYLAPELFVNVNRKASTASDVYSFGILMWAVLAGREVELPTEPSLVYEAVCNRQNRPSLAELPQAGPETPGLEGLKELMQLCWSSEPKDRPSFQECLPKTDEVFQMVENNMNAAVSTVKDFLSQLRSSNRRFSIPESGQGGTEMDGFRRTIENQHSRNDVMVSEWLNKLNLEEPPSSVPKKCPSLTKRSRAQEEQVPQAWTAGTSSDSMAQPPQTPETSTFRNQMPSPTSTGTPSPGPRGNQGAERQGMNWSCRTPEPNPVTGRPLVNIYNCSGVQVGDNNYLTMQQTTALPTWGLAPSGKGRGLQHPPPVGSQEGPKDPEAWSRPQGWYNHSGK

Conditions in all cases: equilibrium dissociation constant
In experiment [1] the target is T1, MLKL (full length) (Homo sapiens, UniProt Q8NB16).
T1 construct: purchased DiscoverX (KINOMEscan service); host or cells: E. coli BL21-derived host (T7 phage) or HEK-293
T1 sequence (Q8NB16 1-471): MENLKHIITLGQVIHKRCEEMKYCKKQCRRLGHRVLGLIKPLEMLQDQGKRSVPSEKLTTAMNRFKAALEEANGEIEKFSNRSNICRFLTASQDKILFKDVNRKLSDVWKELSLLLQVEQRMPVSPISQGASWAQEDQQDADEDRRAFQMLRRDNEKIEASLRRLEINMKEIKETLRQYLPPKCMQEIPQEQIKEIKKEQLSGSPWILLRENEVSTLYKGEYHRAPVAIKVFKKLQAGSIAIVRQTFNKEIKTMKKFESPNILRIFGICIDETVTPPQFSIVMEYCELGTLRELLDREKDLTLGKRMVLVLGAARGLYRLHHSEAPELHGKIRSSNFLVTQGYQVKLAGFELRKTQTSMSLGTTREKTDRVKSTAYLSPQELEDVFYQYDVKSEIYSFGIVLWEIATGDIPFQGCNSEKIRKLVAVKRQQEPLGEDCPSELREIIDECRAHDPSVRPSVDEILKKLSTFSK
Briefly: KINOMEscan binding affinity assay, MLKL.

Experiment [2] has as its target T2, RIP1 (Homo sapiens, UniProt Q13546).
T2 construct: purchased DiscoverX (KINOMEscan service); host or cells: E. coli BL21-derived host (T7 phage) or HEK-293
T2 sequence (Q13546 1-671): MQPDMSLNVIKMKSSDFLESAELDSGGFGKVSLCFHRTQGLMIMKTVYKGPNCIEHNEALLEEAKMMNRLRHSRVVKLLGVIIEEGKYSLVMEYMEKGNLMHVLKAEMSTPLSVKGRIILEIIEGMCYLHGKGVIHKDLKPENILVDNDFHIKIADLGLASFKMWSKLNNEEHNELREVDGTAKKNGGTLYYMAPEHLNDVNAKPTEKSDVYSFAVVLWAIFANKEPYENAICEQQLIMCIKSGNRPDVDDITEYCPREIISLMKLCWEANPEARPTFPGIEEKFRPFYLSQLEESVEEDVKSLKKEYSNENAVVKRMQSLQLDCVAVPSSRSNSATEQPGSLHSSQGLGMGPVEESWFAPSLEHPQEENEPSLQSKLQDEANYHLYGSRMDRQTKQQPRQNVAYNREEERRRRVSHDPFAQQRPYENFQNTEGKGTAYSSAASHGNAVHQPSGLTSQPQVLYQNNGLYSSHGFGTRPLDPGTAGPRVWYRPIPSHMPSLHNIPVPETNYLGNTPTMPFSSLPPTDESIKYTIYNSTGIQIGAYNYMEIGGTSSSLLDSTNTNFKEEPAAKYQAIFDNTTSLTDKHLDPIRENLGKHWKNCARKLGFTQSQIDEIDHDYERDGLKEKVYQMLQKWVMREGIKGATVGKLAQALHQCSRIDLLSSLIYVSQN
In words: KINOMEscan binding affinity assay, RIP1.

The target of experiment [3] is T3, RIP3 (Homo sapiens, UniProt Q9Y572).
T3 construct: purchased DiscoverX (KINOMEscan service); host or cells: E. coli BL21-derived host (T7 phage) or HEK-293
Briefly: KINOMEscan binding affinity assay, RIP3.

Where only a bound is given, the exact number is not on record here.

`COc1ccc(Nc2c(Nc3ccc(-c4n[nH]c(Nc5ccccn5)c4C(N)=O)cc3)c(=O)c2=O)cc1` [Compound 121, 3-(4-((2-((4-methoxyphenyl)amino)-3,4-dioxocyclobut-1-en-1-yl)amino)phenyl)-5-(pyridin-2-ylamino)-1H-pyrazole-4-carboxamide]: the equilibrium dissociation constant (Kd) in experiment [1], in experiment [2] and in experiment [3] was greater than 1000 nM in each case.

With `CC(C(=O)Nc1ccc(-c2n[nH]c(Nc3ccccn3)c2C(N)=O)cc1)c1ccccc1` (stereo not drawn) [Compound 6, 3-(4-(2-phenyl-propanamido)phenyl)-5-(pyridin-2-ylamino)-1H-pyrazole-4-carboxamide], the Kd in experiment [1] was 100 to 1000 nM; in experiment [2], greater than 1000 nM; in experiment [3], greater than 1000 nM.

With `NC(=O)c1c(-c2ccc(NC(=O)N3CCC[C@@H](c4ccccc4)C3)cc2)n[nH]c1Nc1cnccn1` [Compound 91, (3S)-N-(4-{4-carbamoyl-5-[(pyrazin-2-yl)amino]-1H-pyrazol-3-yl}phenyl)-3-phenylpiperidine-1-carboxamide], the Kd in experiment [1] was less than 100 nM; in experiment [2], 100 to 1000 nM; in experiment [3], greater than 1000 nM.

`NC(=O)c1c(-c2ccc(NC(=O)N3CCc4ccccc4C3)cc2)n[nH]c1Nc1cccc(C(F)(F)F)n1` [Compound 75, N-(4-(4-carbamoyl-5-((6-(trifluoromethyl)pyridin-2-yl)amino)-1H-pyrazol-3-yl)phenyl)-3,4-dihydroiso-quinoline-2(1H)-carboxamide]: the figures for the Kd in experiment [1], in experiment [2] and in experiment [3] were less than 100 nM, greater than 1000 nM and greater than 1000 nM, respectively.

Consider `COc1cc(Nc2[nH]nc(-c3ccc(NC(=O)N4CCC(c5ccc(OC(F)(F)F)cc5)C4)cc3)c2C(N)=O)ccn1` (stereo not drawn) [Compound 71, 5-((2-methoxypyridin-4-yl)amino)-3-(4-(3-(4-(trifluoromethoxy)phenyl)pyrrolidine-1-carboxamido)phenyl)-1H-pyrazole-4-carboxamide], for which the Kd is less than 100 nM in experiment [1], greater than 1000 nM in experiment [2] and greater than 1000 nM in experiment [3].

`COc1cc(Nc2[nH]nc(-c3ccc(NC(=O)N4CCc5ccccc54)cc3)c2C(N)=O)ccn1` [Compound 55, N-(4-(4-carbamoyl-5-((2-methoxypyridin-4-yl)amino)-1H-pyrazol-3-yl)phenyl)indoline-1-carboxamide]: the Kd in experiment [1] was less than 100 nM; in experiment [2], greater than 1000 nM; in experiment [3] it was greater than 1000 nM.

On to `COc1cc(Nc2[nH]nc(-c3ccc(NC(=O)N4CCC(c5cccc(C(F)(F)F)c5)C4)cc3)c2C(N)=O)ccn1` (stereo not drawn) [Compound 69], for which the results for the Kd in experiment [1], in experiment [2] and in experiment [3] were less than 100 nM, greater than 1000 nM and greater than 1000 nM, respectively.

For the molecule `COc1cc(Nc2[nH]nc(-c3ccc(NC(=O)N4Cc5ccccc5C4)cc3)c2C(N)=O)ccn1` [Compound 65, N-(4-(4-carbamoyl-5-((2-methoxypyridin-4-yl)amino)-1H-pyrazol-3-yl)phenyl)isoindoline-2-carboxamide], the values for the Kd in experiment [1], in experiment [2] and in experiment [3] were less than 100 nM, greater than 1000 nM and greater than 1000 nM, respectively.

For `NC(=O)c1c(-c2ccc(NC(=O)N3CCC[C@H](c4ccccc4)C3)cc2)n[nH]c1Nc1cnccn1` [Compound 90, (3R)-N-(4-{4-carbamoyl-5-[(pyrazin-2-yl)amino]-1H-pyrazol-3-yl}phenyl)-3-phenylpiperidine-1-carboxamide], the Kd in experiment [1] is less than 100 nM; in experiment [2], less than 100 nM; in experiment [3], greater than 1000 nM.

Turning to `NC(=O)c1c(-c2ccc(Nc3c(Nc4cccc(C(F)(F)F)c4)c(=O)c3=O)cc2)n[nH]c1Nc1ccncc1` [Compound 127, 3-(4-((3,4-dioxo-2-((3-(trifluoromethyl)phenyl)amino)cyclobut-1-en-1-yl)amino)phenyl)-5-(pyridin-4-ylamino)-1H-pyrazole-4-carboxamide], the Kd in experiment [1], in experiment [2] and in experiment [3] was greater than 1000 nM throughout.

For the molecule `NC(=O)c1c(-c2ccc(NC(=O)Cc3cccc(Cl)c3)cc2)n[nH]c1Nc1cnccn1` [Compound 26, 3-(4-(2-(3-chlorophenyl)acetamido)phenyl)-5-(pyrazin-2-ylamino)-1H-pyrazole-4-carboxamide], the Kd in experiment [1] is less than 100 nM; in experiment [2], greater than 1000 nM; in experiment [3], greater than 1000 nM.

For the molecule `COc1cc(Nc2[nH]nc(-c3ccc(NC(=O)N4CC[C@@H](c5ccccc5)C4)cc3)c2C(N)=O)ccn1` [Compound 62, (S)-5-((2-methoxypyridin-4-yl)amino)-3-(4-(3-phenylpyrrolidine-1-carboxamido)phenyl)-1H-pyrazole-4-carboxamide], the Kd in experiment [1] was less than 100 nM; in experiment [2], greater than 1000 nM; in experiment [3], greater than 1000 nM.

For the molecule `NC(=O)c1c(-c2ccc(NC(=O)Nc3ccc(OC(F)(F)F)cc3)cc2)n[nH]c1Nc1ccccn1` [Compound 108, 5-(pyridin-2-ylamino)-3-(4-(3-(4-(trifluoromethoxy)phenyl)ureido)phenyl)-1H-pyrazole-4-carboxamide], the Kd in experiment [1] is 100 to 1000 nM; in experiment [2], greater than 1000 nM; in experiment [3], greater than 1000 nM.

Take `NC(=O)c1c(-c2ccc(NC(=O)Cc3ccccc3)cc2)n[nH]c1Nc1ncccc1F` [Compound 42, 5-((3-fluoropyridin-2-yl)amino)-3-(4-(2-phenyl-acetamido)phenyl)-1H-pyrazole-4-carboxamide]: the values for the Kd in experiment [1], in experiment [2] and in experiment [3] were 100 to 1000 nM, greater than 1000 nM and greater than 1000 nM, respectively.

Consider `Cc1cccnc1Nc1[nH]nc(-c2ccc(NC(=O)Cc3ccccc3)cc2)c1C(N)=O` [Compound 40, 5-((3-methylpyridin-2-yl)amino)-3-(4-(2-phenyl-acetamido)phenyl)-1H-pyrazole-4-carboxamide], for which the Kd in experiment [1], in experiment [2] and in experiment [3] was greater than 1000 nM throughout.

Turning to `NC(=O)c1c(-c2ccc(NC(=O)c3cnn(-c4ccc(OC(F)(F)F)cc4)c3)cc2)n[nH]c1Nc1cccc(C(F)(F)F)n1` [Compound 35], the Kd in experiment [1], in experiment [2] and in experiment [3] was greater than 1000 nM throughout.

For the molecule `COc1cc(Nc2[nH]nc(-c3ccc(NC(=O)NCc4ccccc4)cc3)c2C(N)=O)ccn1` [Compound 68, 3-(4-(3-benzylureido)phenyl)-5-((2-methoxypyridin-4-yl)amino)-1H-pyrazole-4-carboxamide], the figures for the Kd in experiment [1], in experiment [2] and in experiment [3] were less than 100 nM, greater than 1000 nM and greater than 1000 nM, respectively.

`COc1ccccc1CC(=O)Nc1ccc(-c2n[nH]c(Nc3cnccn3)c2C(N)=O)cc1` [Compound 28, 3-(4-(2-(2-methoxyphenyl)acetamido)phenyl)-5-(pyrazin-2-ylamino)-1H-pyrazole-4-carboxamide]: the Kd was 100 to 1000 nM in experiment [1], greater than 1000 nM in experiment [2] and greater than 1000 nM in experiment [3].

For the molecule `COCCOc1ccnc(Nc2[nH]nc(-c3ccc(NC(=O)Cc4ccccc4)cc3)c2C(N)=O)c1` [Compound 45, 5-((4-(2-methoxyethoxy)pyridin-2-yl)amino)-3-(4-(2-phenyl-acetamido)phenyl)-1H-pyrazole-4-carboxamide], the Kd in experiment [1] is 100 to 1000 nM; in experiment [2], greater than 1000 nM; in experiment [3] it was greater than 1000 nM.

Consider `NC(=O)c1c(-c2ccc(NC(=O)Nc3ccc(OC(F)(F)F)cc3)cc2)n[nH]c1Nc1ccncc1` [Compound 109, 5-(pyridin-4-ylamino)-3-(4-(3-(4-(trifluoromethoxy)phenyl)ureido)phenyl)-1H-pyrazole-4-carboxamide], for which the Kd in experiment [1] is 100 to 1000 nM; in experiment [2] it was 100 to 1000 nM; in experiment [3], greater than 1000 nM.

Take `COc1cc(Nc2[nH]nc(-c3ccc(NC(=O)N4CCC(c5cnn(C)c5)C4)cc3)c2C(N)=O)ccn1` (stereo not drawn) [Compound 74, 5-((2-methoxypyridin-4-yl)amino)-3-(4-(3-(1-methyl-1H-pyrazol-4-yl)pyrrolidine-1-carboxamido)phenyl)-1H-pyrazole-4-carboxamide]: the Kd in experiment [1] was 100 to 1000 nM; in experiment [2] it was greater than 1000 nM; in experiment [3], greater than 1000 nM.

Consider `NC(=O)c1c(-c2ccc(NC(=O)N3CCc4ccc(C(F)(F)F)cc4C3)cc2)n[nH]c1Nc1cccc(C(F)(F)F)n1` [Compound 77, N-(4-(4-carbamoyl-5-((6-(trifluoromethyl)pyridin-2-yl)amino)-1H-pyrazol-3-yl)phenyl)-7-(trifluoromethyl)-3,4-dihydroiso-quinoline-2(1H)-carboxamide], for which the Kd in experiment [1] is less than 100 nM; in experiment [2] it was greater than 1000 nM; in experiment [3] it was greater than 1000 nM.

Usually Kd stands for the constant that tells how readily two partners part at equilibrium. A higher Kd goes with a looser complex.
